Data: patent publication US20250170265A1 (priority 2023, published 2025)

System: supercoiled pBR322 plasmid DNA
Assay type: biochemical

N-phenyl 3-diazobenzamide tetrafluoroborate [Compound 9]
EC50: 289 nM
